Laboratory results taken from patent publication US20040127518A1, “Modulation of anxiety through blockade of anandamide hydrolysis” (priority 2002, published 2004).

Amino acid sequences for entries named in this document (tags omitted).
UniProt O42275, whole entry: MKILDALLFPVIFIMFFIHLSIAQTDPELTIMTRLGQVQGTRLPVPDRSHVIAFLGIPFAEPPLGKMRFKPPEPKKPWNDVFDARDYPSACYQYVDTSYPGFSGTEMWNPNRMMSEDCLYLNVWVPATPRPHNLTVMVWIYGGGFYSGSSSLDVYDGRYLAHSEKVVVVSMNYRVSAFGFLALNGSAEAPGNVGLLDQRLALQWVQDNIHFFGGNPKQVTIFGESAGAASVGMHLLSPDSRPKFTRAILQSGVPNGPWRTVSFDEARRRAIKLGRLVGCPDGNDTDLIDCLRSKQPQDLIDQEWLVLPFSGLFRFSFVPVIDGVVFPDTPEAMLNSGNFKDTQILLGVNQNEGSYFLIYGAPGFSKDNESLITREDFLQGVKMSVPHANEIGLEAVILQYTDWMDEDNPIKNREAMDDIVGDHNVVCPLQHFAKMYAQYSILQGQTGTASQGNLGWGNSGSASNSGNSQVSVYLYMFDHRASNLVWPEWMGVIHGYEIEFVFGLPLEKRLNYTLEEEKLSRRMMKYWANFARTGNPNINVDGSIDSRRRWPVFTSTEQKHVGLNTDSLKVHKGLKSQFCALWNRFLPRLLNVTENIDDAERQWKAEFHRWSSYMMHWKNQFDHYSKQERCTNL
UniProt P97612, whole entry: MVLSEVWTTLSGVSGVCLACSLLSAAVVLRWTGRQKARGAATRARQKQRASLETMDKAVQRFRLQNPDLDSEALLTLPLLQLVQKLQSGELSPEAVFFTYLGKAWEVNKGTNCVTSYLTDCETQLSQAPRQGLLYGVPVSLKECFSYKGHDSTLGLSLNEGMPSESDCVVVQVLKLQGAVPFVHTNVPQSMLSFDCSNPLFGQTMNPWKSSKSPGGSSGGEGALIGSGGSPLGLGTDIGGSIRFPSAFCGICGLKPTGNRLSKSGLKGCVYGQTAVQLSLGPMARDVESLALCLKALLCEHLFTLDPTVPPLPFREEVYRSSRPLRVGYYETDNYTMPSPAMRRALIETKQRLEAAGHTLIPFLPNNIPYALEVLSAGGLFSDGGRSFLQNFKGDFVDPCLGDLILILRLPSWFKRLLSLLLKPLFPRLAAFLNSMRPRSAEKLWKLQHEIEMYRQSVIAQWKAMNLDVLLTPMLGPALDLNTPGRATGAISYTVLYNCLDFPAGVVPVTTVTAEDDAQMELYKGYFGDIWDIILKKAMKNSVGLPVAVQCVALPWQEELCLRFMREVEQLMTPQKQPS

Columns and labels:
[1] = target: electric eel acetylcholinesterase (Electrophorus electricus, UniProt O42275); conditions: read-out: Cholinesterase IC50, Table 3
FAAH = FAAH (Rattus norvegicus, UniProt P97612); conditions: read-out: Amidohydrolase IC50; Table 3

`CCNC(=O)Oc1ccc(C)cc1` was tested, and the IC50 [1] was > 30 µM and the IC50 (FAAH) was > 30 µM.
